The target of the assay is Stat3 (Homo sapiens, UniProt P40763). Description: EMSA of inhibition of Stat3 dimerization and DNA binding by phosphopeptides. Type of assay: biochemical. How it is done: To find a lead compound for inhibitor development, a series of phospho-hexapeptides derived from known receptor docking sites for Stat3 were synthesized and assayed for their ability to inhibit Stat3 dimerization and DNA binding using electrophoretic mobility shift assays (EMSA) (Ren et al., 2003). […] SAR experiments were conducted systematically replacing each amino acid. The goal was to find non-peptidic groups that would be stable to phosphatases and proteases, and that would be more hydrophobic to allow greater bioavailability. […] The small peptidomimetics were assayed for their ability to bind to the SH2 domain of Stat3 using fluoresence polarization.
Nuclear extract was extracted as previously described (Andrews and Faller, 1991). Equal amount of nuclear extract protein was then incubated with ^32P labeled high-affinity c-sis-inducible element (hSIE; 5′-[…]-3′ , SEQ ID NO:25) (Santa Cruz). The reactions were performed in a total volume of 24 μl in buffer consisting of 10 mM HEPES (pH 7.8), 50 mM KCl, 1 mM EDTA, 5 mM MgCl2, 10% glycerol, 5 mM dithiothreitol, 1 mg of bovine serum albumin per ml, 0.5 mM phenyl-methylsulfonylflouride, and 1 mM Na3VO4 with 1 μg of poly (dI-dC) and 0.3 ng of ^32P-labeled hSIE. […] The screen was then scanned and the bands showing Stat3-DNA binding were quantified using the Storm System (Molecular Dynamics).
Background: Mobility shift assays separate free from complexed probe on a gel.

Amino acid sequences for entries named in this document (tags omitted).
UniProt P40763, whole entry, species assumed: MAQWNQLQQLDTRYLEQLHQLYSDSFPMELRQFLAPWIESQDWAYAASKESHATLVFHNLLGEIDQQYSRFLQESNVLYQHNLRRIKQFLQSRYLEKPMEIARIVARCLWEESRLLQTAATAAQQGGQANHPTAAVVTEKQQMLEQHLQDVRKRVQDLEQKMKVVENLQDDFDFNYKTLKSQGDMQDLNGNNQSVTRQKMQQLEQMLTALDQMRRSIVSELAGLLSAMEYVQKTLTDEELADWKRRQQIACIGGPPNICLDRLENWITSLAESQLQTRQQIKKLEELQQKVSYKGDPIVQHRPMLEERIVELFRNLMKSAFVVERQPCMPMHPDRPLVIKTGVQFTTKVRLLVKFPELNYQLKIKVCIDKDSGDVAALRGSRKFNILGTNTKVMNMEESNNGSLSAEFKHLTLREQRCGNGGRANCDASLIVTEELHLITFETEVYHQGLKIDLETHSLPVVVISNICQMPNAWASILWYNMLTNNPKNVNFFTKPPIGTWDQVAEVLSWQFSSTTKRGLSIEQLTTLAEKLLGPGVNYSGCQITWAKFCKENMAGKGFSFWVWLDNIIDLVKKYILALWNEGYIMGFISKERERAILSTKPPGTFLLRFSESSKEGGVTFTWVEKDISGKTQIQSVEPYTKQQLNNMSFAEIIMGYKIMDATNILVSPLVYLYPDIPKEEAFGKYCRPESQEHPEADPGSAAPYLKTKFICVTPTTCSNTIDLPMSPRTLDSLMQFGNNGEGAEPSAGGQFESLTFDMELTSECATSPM

Each structure is given as a SMILES string. Like-named read-outs stand apart in the source and are kept apart here.

The term IC50 denotes the point on the concentration scale where inhibition reaches its midpoint. As to `CC[C@H](C)[C@H](NC(=O)[C@H](Cc1ccc(OP(=O)(O)O)cc1)NC(C)=O)C(=O)N[C@@H](CC(N)=O)C(=O)N[C@@H](CCC(N)=O)C(=O)N[C@@H](CO)C(=O)N[C@H](C(N)=O)C(C)C` [Peptide 3, Y(p)INQSV], where the note is “EMSA, averages of two determinations, read-out: IC50 (inhibition of Stat3 dimerization and DNA binding)”, the IC50 is 30 µM.
Compound `CC(=O)N[C@@H](Cc1ccc(OP(=O)(O)O)cc1)C(=O)N[C@@H](Cc1cnc[nH]1)C(=O)N[C@@H](CC(N)=O)C(=O)N[C@@H](CCC(N)=O)C(=O)N1CCC[C@H]1C(=O)N[C@@H](CC(C)C)C(N)=O` [Peptide 4, Y(p)HNQPL] had an IC50 of 150 µM.
